Measured values: patent publication US20050209299A1, “Inhibition of mixed lineage kinases and uses therefor” (University of Maryland, Baltimore, priority 2004, published 2005)

Sequences of proteins named here, by UniProt entry; tags and fusion partners are left off. A change or cut given only in a name is not applied to a line headed by its entry.
UniProt Q02779: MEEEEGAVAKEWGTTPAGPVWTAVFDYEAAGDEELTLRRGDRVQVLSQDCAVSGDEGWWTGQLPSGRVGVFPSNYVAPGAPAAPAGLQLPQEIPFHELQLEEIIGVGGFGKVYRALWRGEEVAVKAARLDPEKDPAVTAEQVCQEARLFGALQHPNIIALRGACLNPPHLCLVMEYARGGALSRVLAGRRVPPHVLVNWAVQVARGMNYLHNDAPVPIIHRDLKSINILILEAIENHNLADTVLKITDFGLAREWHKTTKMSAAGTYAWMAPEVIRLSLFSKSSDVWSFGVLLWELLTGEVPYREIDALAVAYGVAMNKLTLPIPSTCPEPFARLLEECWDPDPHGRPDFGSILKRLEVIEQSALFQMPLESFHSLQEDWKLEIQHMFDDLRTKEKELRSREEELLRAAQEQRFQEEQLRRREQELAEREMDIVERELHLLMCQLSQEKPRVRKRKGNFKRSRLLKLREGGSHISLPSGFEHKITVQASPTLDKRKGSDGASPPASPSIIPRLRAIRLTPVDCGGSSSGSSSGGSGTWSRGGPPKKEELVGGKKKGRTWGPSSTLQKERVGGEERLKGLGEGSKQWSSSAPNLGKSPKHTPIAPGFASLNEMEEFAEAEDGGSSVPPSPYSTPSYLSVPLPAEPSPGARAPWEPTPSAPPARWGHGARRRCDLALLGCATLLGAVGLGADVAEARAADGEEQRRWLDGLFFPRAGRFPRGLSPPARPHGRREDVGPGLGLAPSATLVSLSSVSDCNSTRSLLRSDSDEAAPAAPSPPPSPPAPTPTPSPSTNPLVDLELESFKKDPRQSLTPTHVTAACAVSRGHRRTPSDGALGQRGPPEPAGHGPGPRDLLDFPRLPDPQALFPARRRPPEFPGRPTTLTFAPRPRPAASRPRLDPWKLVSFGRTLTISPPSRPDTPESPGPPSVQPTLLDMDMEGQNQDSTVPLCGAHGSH

Tests used:
HeLa cells = test: Mitotic index / mitotic stage assay (DAPI) in synchronized HeLa cells; assay type: cell-based; conditions: varying concentrations (75, 100, 200 nM)
Procedure: In some experiments, cells were synchronized by double thymidine block as previously described (18-19). Briefly, cells were incubated for 16 hours with 2 mM thymidine in 10% FBS containing DMEM. The excess thymidine was washed off with Hanks Buffered Saline Solution (HBSS) and cells were released back into the cell cycle with complete medium. After 8 hours, cells were treated a second time with 2 mM thymidine in 10% FBS containing DMEM for another 16 hours to arrest cells at the G1/S-phase boundary. Synchronized cells were then washed with HBSS and released back into the cell cycle and harvested at various time points after G1/S release for analysis. Cell cycle analysis was done by fluorescence activated cell sorting (FACS) as described below. In some experiments, CEP-11004 was added to the synchronized cells 5 hours after release from G1/S block, which corresponded to late S-phase or early G2-phase.
Cells grown on coverslips were synchronized at the G1/S-phase boundary as described in Examples 4-5. In some cases, MLK3 was co-expressed with the pEGFP vector in order to identify transfected cells. […] GFP-positive mitotic cells in prophase, prometaphase, metaphase, anaphase, or telophase were identified, counted, and expressed as a fraction of the total cells counted to determine the mitotic index. Within each experiment, 300 to 350 cells were counted for each condition and time point.

MLK2 = biological target: T1, MLK2 (Homo sapiens, UniProt Q02779); test: MLK2 activation of JNK1 in transfected cells (immunoblot); assay type: cell-based; conditions: GFP-MLK2 + HA-JNK1 co-expressed
T1 construct: expressed in transfected cells; host or cells: HeLa
Procedure: HeLa, NIH 3T3, HEK293, A549, or MRC-5 cells were grown in a DMEM supplemented with 10% fetal bovine serum (FBS) and penicillin (100 U/ml) and streptomycin (100 μg/ml). Estrogen receptor (ER) negative breast cancer cells, SUM-159, were obtained from the University of Michigan Human Breast Cancer Cell Lines (SUM-Lines) and grown in DMEM+10% FBS. In some experiments, cells were transfected with cDNA (1 μg) for pEGFP (BD Biosciences/Clontech, Palo Alto, Calif.), hemagglutinin (HA)-tagged MLK3, kinase dead mutant MLK3 (MLK3 K144R), GFP-tagged MLK2 (kindly provided by Dr. Donna Dorow), Flag-tagged DLK, or HA-tagged JNK1 using Lipofectamine® (Invitrogen, Carlsbad, Calif.). Transfected cells were harvested 16-24 hours after transfection.
For protein analysis, cells were washed twice with cold phosphate buffered saline (PBS), lysed with 300 μl of tissue lysis buffer (TLB) (20 mM Tris-base, pH 7.4, 137 mM NaCl, 2 mM EDTA, 1% Triton X-100, 25 mM β-glycerophosphate, 2 mM sodium pyrophosphate, 10% glycerol, 1 mM sodium orthovanadate, 1 mM phenylmethysulfonyl fluoride (PMSF), and 1 mM benzamidine) and centrifuged at 20,000×g to clarify lysates. Approximately 20 μg of total protein was separated by SDS-PAGE. […] Immunoreactivity was detected by enhanced chemiluminescence (ECL; Amersham, Buckinghamshire, England).

3,9-bis-[(isopropylthio)methyl]-(8R*,9S*, 11S*)-(−)-9-hydroxy-9-methoxycarbonyl-8-methyl-2,3,9,10-tetrahydro-8,11-epoxy-1H,8H,11H-2,7b,11a-triazadibenzo(a,g)cycloocta(cde)trinden-1-one [CEP-11004]
mitotic index in MLK3 transfected cells (HeLa cells): reduced mitotic index
mitotic index in mock transfected cells (HeLa cells): higher levels of mitotic cells
concentration required for significant inhibition of MLK2 activation of JNK1 (MLK2): greater than 400 nM
